Entries after “also recorded” stand apart in the source; their conditions may differ.
Assays:
Type in all cases: cell-based
mouse myoblasts [1] = assay: In vitro mouse myoblast invasion assay across Matrigel barrier; settings: 24 hours
Protocol: (§1) Mouse myoblasts were previously isolated from hind limb muscles of 4-6 week old severe combined immunodeficient (SCID) mice and clonally purified from contaminating fibroblasts (Yao et al. “Primary myoblast-mediated gene: transfer: persistent expression of human factor IX in mice” Gene Therapy 1:99-107, 1994). Myoblasts (approximately 1×10^6 cells) were plated on 6 cm tissue culture plates coated with 0.5% gelatin (Sigma, St. Louis, Mo.) and grown in growth medium consisting of Dulbecco's Modified Eagle Medium (DMEM) (Gibco BRL, Gaithersburg Md.) supplemented with 20% fetal bovine serum (FBS; Gibco) and 0.5% chick embryo extract (CEE; Gibco). All animal studies were carried out following the institutional guidelines for ethical animal use. Human myoblasts were isolated using trypsin digestion from abdominal wall or chest wall muscle biopsies, and surgery. […] Myoblast migration and invasion were examined using a commercially available in vitro cell migration and invasion assay kit (Biocoat, Becton Dickinson, Franklin Lakes, N.J.) as described by Albini et al. (A rapid in vitro assay for quantitating the invasive potential of tumor cells Cancer Res 47:3239-3245, 1987). […] The number of cells per field was counted in 10 randomly selected fields and averaged for each condition. […]

MMP-9 [2] = assay: Gelatin zymography of mouse myoblast culture medium, MMP-9
Protocol: (§2) Gelatin zymography for assaying MMPs was carried out as previously described (Guerin and Holland “Synthesis and secretion of matrix-degrading metalloproteinases by human skeletal muscle satellite cells” Devel. Dynamics 202:91-99,1995) with minor modifications. Briefly, myoblasts were grown in 6 cm tissue culture plates to approximately 70% confluence, then rinsed three times with serumfree DMEM and incubated for 3 hours in DMEM containing 0.2% BSA to eliminate the effects of serum. Growth factors were added and cells were incubated for 24 hours. Culture medium was then collected, centrifuged to pellet detached cells, and concentrated ten-to twenty-fold using the Centricon-10 (Amicon, Beverly, Mass.) system. The protein concentration of the supernatants was determined using the Bio-Rad protein microassay system with BSA used as the standard. Samples were stored at −70° C. until use. For gelatin zymography, aliquots (10 μg as the total protein per sample) were electrophoresed at constant voltage on a 10% polyacrylamide gel containing 2 mg/ml gelatin. […] Proteinase activity was quantified by densitometric scanning of bands using a Bio-Rad Gel Doc 1000 video camera imaging system (Bio Rad, Hercules, Calif.). […]

MMP-9 [3] = assay: Gelatin zymography of human myoblasts, MMP-9
Protocol: as §2

mouse myoblasts [4] = assay: In vitro mouse myoblast migration assay (gelatin-coated membrane); settings: 12 hours; stimulant in bottom chamber
Protocol: as §1

MMP-2 = assay: Gelatin zymography of mouse myoblast culture medium, MMP-2; settings: mouse myoblasts treated 24 hours
Protocol: as §2

## recombinant human tumor necrosis factor-α [TNF-α]
Mouse myoblasts [1]
  effect on mouse myoblast Matrigel invasion: marginal effects
MMP-9 [2]; mouse myoblasts
  effect on MMP-9 expression: can strongly induce MMP-9 expression
MMP-9 [2]; mouse myoblasts treated 24 hours
  MMP-9 expression (110 kDa band) over the DMEM control level: approximately 30 fold
MMP-9 [3]
  effect on MMP-9 expression (92 kDa band): only marginal increases in MMP-9 expression
Mouse myoblasts [4]
  effect on mouse myoblast migration: stimulated migration of mouse myoblasts to various degrees; also recorded: marginal effects
MMP-2
  effect on MMP-2 expression: only negligibly increased MMP-2 expression

From US20010055590A1, “Method for enhancing myoblast migration and invasion in the context of gene therapy” (priority 1999, published 2001)
